Experimental findings from article PMC4849473 (2016) are described below.

Experiment [1] has as its target T1, Chp1CD wild type, SUMO tag removed, fluorescently labelled (for MST) (fission yeast (S. pombe), UniProt Q10103 15-75, fluorescent label, amine reactive (Monolith Protein Labeling Kit BLUE-NHS), 1:1 fluorescence:protein ratio).
T1 chain: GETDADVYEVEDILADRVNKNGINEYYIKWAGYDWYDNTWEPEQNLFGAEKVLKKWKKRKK
The experiment is described as follows: MST.

The target of experiment [2] is Chp1CD LOOP1B/2B, SUMO tag removed, fluorescently labelled (for MST) (fission yeast (S. pombe), UniProt Q10103, in part, N33A | N35A | W49A | Y50A | D51A, fluorescent label, amine reactive (Monolith Protein Labeling Kit BLUE-NHS), 1:1 fluorescence:protein ratio). The experiment is described as follows: MST.

B1: [Lys(Me3)9]-Histone H3 ([…])-GGK(Biotin) peptide (peptide)
peptide: not shown
modifications: trimethyl-lysine at 9; biotin on the C-terminal lysine of GGK
Consider B1, for which the dissociation constant (Kd) in experiment [1] stood at 359 nM; in experiment [2], 315 nM.

Broadly, the Kd is the concentration at which binding is half-saturated.
